# Read-outs that look alike come from different tables or passages of the source.
# Test system: Escherichia coli, ATCC 25922
# Assay type: cell-based
# Settings: single measurement (asterisk)
# Protocol: The following strains were used in this study: Escherichia coli, ATCC 25922, Staphylococcus aureus, epidemic methicillin-resistant EMRSA-15, Klebsiella pneumoniae, clinical isolate from St George’s, University of London (SGUL, London, UK), Acinetobacter baumannii, clinical isolate from SGUL, Pseudomonas aeruginosa, PA01 wildtype strain, and Enterococcus faecalis, vancomycin-resistant ATCC 51299.
# The minimal inhibitory concentration (MIC) was determined in a microdilution assay using Mueller–Hinton (MH) or Brain Heart Infusion Broth (BHI) broth following a previously published protocol. Briefly, a twofold serial dilution of the antibiotics and peptides were prepared and added to a bacteria solution, resulting in 2–5 10^5 CFU/mL. The microtiter plates (polypropylene, Corning, Corning, NY, USA) were incubated for 18 h at 37 °C and MICs were taken visually. Based on our experience with proline rich peptides, their low activity in Mueller–Hinton broth, and their strong activity in diluted broth, we decided to also measure the activity of the peptide set in a 1/5 dilution of the broth. MICs in the presence of serum were established using human serum (Zen-Bio, Durham, NC, USA) and heat-inactivated serum (Sigma-Aldrich, St. Louis, MO, USA). A total of 20% (v/v) of each human serum was mixed with bacterial solution and added to predetermined concentrations of antibiotics and peptides, resulting in a final 10% (v/v) concentration of serum and 2–5 × 10^5 bacteria.
compound,measurement,setting,value
"CC[C@H](C)[C@H](NC(=O)CN)C(=O)NCC(=O)N[C@@H](C)C(=O)N[C@H](C(=O)N[C@@H](CC(C)C)C(=O)N[C@@H](CCCCN)C(=O)N[C@H](C(=O)N[C@@H](CC(C)C)C(=O)N[C@H](C(=O)N[C@H](C(=O)NCC(=O)N[C@@H](CC(C)C)C(=O)N1CCC[C@H]1C(=O)N[C@@H](C)C(=O)N[C@@H](CC(C)C)C(=O)N[C@H](C(=O)N[C@@H](CO)C(=O)N[C@@H](Cc1c[nH]c2ccccc12)C(=O)N[C@H](C(=O)N[C@@H](CCCCN)C(=O)N[C@@H](CCCNC(=N)N)C(=O)N[C@@H](CCCCN)C(=O)N[C@@H](CCCNC(=N)N)C(=O)N[C@@H](CCC(N)=O)C(=O)N[C@@H](CCC(N)=O)C(N)=O)[C@@H](C)CC)[C@@H](C)CC)[C@@H](C)O)[C@@H](C)O)C(C)C)C(C)C [Melittin, reference compound]",MIC,1/5 MH + 10% heat inactivated human serum,11 µM
same,MIC,1/5 MH + 10% human serum,11 to 22 µM
same,MIC,1/5 MH,3 µM
same,MIC,MH,16 µM

# Source: publication PMC8228819, “Comparison of a Short Linear Antimicrobial Peptide with Its Disulfide-Cyclized and Cyclotide-Grafted Variants against Clinically Relevant Pathogens” (Microorganisms, 2021)
